# Measurements from publication PMC8976035, “Pharmacodynamic, pharmacokinetic, and phase 1a study of bisthianostat, a novel histone deacetylase inhibitor, for the treatment of relapsed or refractory multiple myeloma” (Acta Pharmacologica Sinica, 2021).
# Where two headings read alike, the source gives them in different places.
# Assays:
# [1] = both, ICR, mouse, in vivo, po, 200 mg/kg
# RPMI-8226 xenograft = details: mouse, in vivo
# [2] = human, in vivo
# clinical = details: human, in vivo; for AUC(0-inf): AUC0–∞
# MM.1S xenograft = details: mouse, in vivo
# [3] = human, in vivo; remark: listed apart in the source
# in vivo [4] = details: beagle, dog
# [5] = mouse, in vivo
# in vivo [6] = details: ICR, mouse; for half-life: t1/2
structure (smiles),measurement,setting,value
O=C(CCCCNC(=O)c1nc(-c2nccs2)sc1C1CC1)NO [BIS],Tmax,[1],0.38 (0.25–0.50) h
same,body weight versus control,RPMI-8226 xenograft,no significant weight loss
same,Ctrough,[2],< 2.00 ng/mL
same,time to achieve the steady state,[2],≤ 7 days
same,time of reaching Cmax (tmax),[2]; po,30 to 135 min
same,AUC,clinical,> 2000 ng·h/mL
same,Vd/F,clinical,230 to 538 L
same,AUC(0-inf),"clinical; po, 100 mg",2070 ng·h/mL
same,Cmax,"clinical; po, 100 mg",599 ng/mL
same,Vd/F,"clinical; po, 100 mg",314 L
same,half-life,"clinical; po, 100 mg, t1/2",257 min
same,AUC(0-inf),"clinical; po, 200 mg",3760 ng·h/mL
same,Cmax,"clinical; po, 200 mg",1110 ng/mL
same,Vd/F,"clinical; po, 200 mg",343 L
same,half-life,"clinical; po, 200 mg, t1/2",263 min
same,Tmax,"clinical; po, 200 mg, tmax",30 min
same,AUC(0-inf),"clinical; po, 400 mg",5190 ng·h/mL
same,Cmax,"clinical; po, 400 mg",1300 ng/mL
same,Vd/F,"clinical; po, 400 mg",445 L
same,half-life,"clinical; po, 400 mg, t1/2",246 min
same,half-life,"clinical; po, half-life",~240 min
same,body weight versus control,MM.1S xenograft,no significant weight loss
same,"any grade hematological treatment-related AEs, patients",[3],50%
same,"any grade nonhematological treatment-emergent AEs, patients",[3],37.5%
same,clinical cardiac toxicity,[3],no clinical cardiac toxicity has been observed
same,discontinuation of treatment due to AEs,[3],No patient discontinued the treatment
same,dose-limiting toxicities (DLT),[3],no DLT has been observed
same,"grade 3/4 hematological AEs, patients",[3],25%
same,grade 3/4 nonhematological AEs,[3],no grade 3/4 nonhematological AEs were reported
same,NOAEL,in vivo [4],< 15 mg/kg/day
same,tissue distribution,[5],favorably distributed in blood compared with other tissues such as lung and liver
same,AUC(0-inf),"in vivo [6]; both, iv, 10 mg/kg",7340 ng·h/mL
same,MRT inf,"in vivo [6]; both, iv, 10 mg/kg",13.8 min
same,Vd,"in vivo [6]; both, iv, 10 mg/kg",0.31 L/kg
same,clearance,"in vivo [6]; both, iv, 10 mg/kg",22.8 mL/min/kg
same,half-life,"in vivo [6]; both, iv, 10 mg/kg",16.2 min
same,bioavailability,"in vivo [6]; both, po",16.9 to 35.5%
same,AUC(0-inf),"in vivo [6]; both, po, 50 mg/kg",13400 ng·h/mL
same,Cmax,"in vivo [6]; both, po, 50 mg/kg",8150 ng/mL
same,MRT inf,"in vivo [6]; both, po, 50 mg/kg",96.6 min
same,bioavailability,"in vivo [6]; both, po, 50 mg/kg",35.5%
same,half-life,"in vivo [6]; both, po, 50 mg/kg",61.8 min
same,Tmax,"in vivo [6]; both, po, 50 mg/kg",15 min
same,AUC(0-inf),"in vivo [6]; both, po, 100 mg/kg",20400 ng·h/mL
same,Cmax,"in vivo [6]; both, po, 100 mg/kg",8660 ng/mL
same,MRT inf,"in vivo [6]; both, po, 100 mg/kg",163 min
same,bioavailability,"in vivo [6]; both, po, 100 mg/kg",27.6%
same,half-life,"in vivo [6]; both, po, 100 mg/kg",57 min
same,Tmax,"in vivo [6]; both, po, 100 mg/kg",30 min
same,AUC(0-inf),"in vivo [6]; both, po, 200 mg/kg",25100 ng·h/mL
same,Cmax,"in vivo [6]; both, po, 200 mg/kg",9800 ng/mL
same,MRT inf,"in vivo [6]; both, po, 200 mg/kg",161 min
same,bioavailability,"in vivo [6]; both, po, 200 mg/kg",16.9%
same,AUC(0-inf),"in vivo [6]; female, iv, 10 mg/kg",7900 ng·h/mL
same,MRT inf,"in vivo [6]; female, iv, 10 mg/kg",14.4 min
same,Vd,"in vivo [6]; female, iv, 10 mg/kg",0.3 L/kg
same,clearance,"in vivo [6]; female, iv, 10 mg/kg",21.2 mL/min/kg
same,half-life,"in vivo [6]; female, iv, 10 mg/kg",17.4 min
same,AUC(0-inf),"in vivo [6]; female, po, 50 mg/kg",14100 ng·h/mL
same,Cmax,"in vivo [6]; female, po, 50 mg/kg",7970 ng/mL
same,MRT inf,"in vivo [6]; female, po, 50 mg/kg",112 min
same,half-life,"in vivo [6]; female, po, 50 mg/kg",66 min
same,Tmax,"in vivo [6]; female, po, 50 mg/kg",15 min
same,AUC(0-inf),"in vivo [6]; female, po, 100 mg/kg",26000 ng·h/mL
same,Cmax,"in vivo [6]; female, po, 100 mg/kg",8650 ng/mL
same,MRT inf,"in vivo [6]; female, po, 100 mg/kg",207 min
same,half-life,"in vivo [6]; female, po, 100 mg/kg",67.8 min
same,Tmax,"in vivo [6]; female, po, 100 mg/kg",30 min
same,AUC(0-inf),"in vivo [6]; female, po, 200 mg/kg",26500 ng·h/mL
same,Cmax,"in vivo [6]; female, po, 200 mg/kg",10800 ng/mL
same,MRT inf,"in vivo [6]; female, po, 200 mg/kg",171 min
same,half-life,"in vivo [6]; female, po, 200 mg/kg",87.6 min
same,Tmax,"in vivo [6]; female, po, 200 mg/kg",15 min
same,AUC(0-inf),"in vivo [6]; male, iv, 10 mg/kg",6810 ng·h/mL
same,MRT inf,"in vivo [6]; male, iv, 10 mg/kg",13.2 min
same,Vd,"in vivo [6]; male, iv, 10 mg/kg",0.33 L/kg
same,clearance,"in vivo [6]; male, iv, 10 mg/kg",24.5 mL/min/kg
same,half-life,"in vivo [6]; male, iv, 10 mg/kg",15.6 min
same,AUC(0-inf),"in vivo [6]; male, po, 50 mg/kg",12800 ng·h/mL
same,Cmax,"in vivo [6]; male, po, 50 mg/kg",8340 ng/mL
same,MRT inf,"in vivo [6]; male, po, 50 mg/kg",81 min
same,half-life,"in vivo [6]; male, po, 50 mg/kg",57.6 min
same,Tmax,"in vivo [6]; male, po, 50 mg/kg",15 min
same,AUC(0-inf),"in vivo [6]; male, po, 100 mg/kg",16000 ng·h/mL
same,Cmax,"in vivo [6]; male, po, 100 mg/kg",8680 ng/mL
same,MRT inf,"in vivo [6]; male, po, 100 mg/kg",118 min
same,half-life,"in vivo [6]; male, po, 100 mg/kg",46.2 min
same,Tmax,"in vivo [6]; male, po, 100 mg/kg",30 min
same,AUC(0-inf),"in vivo [6]; male, po, 200 mg/kg",23800 ng·h/mL
same,Cmax,"in vivo [6]; male, po, 200 mg/kg",8880 ng/mL
same,MRT inf,"in vivo [6]; male, po, 200 mg/kg",151 min
same,half-life,"in vivo [6]; male, po, 200 mg/kg",109 min
same,Tmax,"in vivo [6]; male, po, 200 mg/kg",30 min
